# Laboratory results as given in PubChem BioAssay AID1346985 (Tox21, 2019).
# Only a part is listed here, and it is no random draw. Records with an inconclusive call do not appear. Calls of active or inactive are those of the source. Calls follow the shape of the dose curve; as a rule, active = well fitted activation curve with a large enough effect in the repeat runs; inconclusive = weak or mixed curves; inactive = flat fitted curve, though single readings scatter.
# Biological target: Nuclear receptor subfamily 1 group I member 2 (Homo sapiens) (UniProt O75469)
# Experiment: Human pregnane X receptor (PXR) activation by small molecules, qHTS assay; also: nearly all actives have a fitted effect of over 40% in size
# Settings: DPX-2 HepG2 CYP3A4-luciferase, 24 h; at 38.3 µM (top of the series)
# Description: National Center for Advancing Translational Sciences [NCATS]
# NIH Chemical Genomics Center [NCGC]
# U.S. Environmental Protection Agency [EPA]
# National Institutes of Environmental Health Sciences [NIEHS]
# National Toxicology Program [NTP]
# The Pregnane X receptor (PXR), a ligand activated nuclear receptor plays a critical role in the regulation of genes involved in drug metabolism and transporters. Activation of PXR may be involved in the unwanted adverse drug-drug interactions. […] Therefore, identification of compounds with the potential for PXR activation can be of importance in improving the efficacy of drugs with less toxicity and avoiding drug-drug interactions.
# DPX-2 (Puracyp, Inc.) cell lines, used for screening against human PXR activation has HepG2 cells co-transfected with a PXR response element and a luciferase construct containing CYP3A4 promoter. Increase in luciferase activity can be used to identify the compounds that activate the PXR pathway.
# DPX-2 cells were dispensed at 2,000 cells per well in 5uL of assay medium into white, solid-bottom 1536-well plates using a Multidrop Combi dispenser (Thermo Scientific). […] Then 5ul One-Glo assay reagent (Promega) was added to each plate by a Flying Reagent Dispenser (FRD, Aurora Discovery) and following 30 min incubation at room temperature, luciferase activity was quantified on a ViewLux plate reader (Perkin Elmer).
# % is scaled to controls: 0 for no effect and ±100 for the full control effect.
row,Compound,activation
1,CN(C(=O)Cc1ccccc1)[C@H]1CC[C@@]2(CCCO2)C[C@@H]1N1CCCC1,inactive: 0.0469%
2,O=C(OC1CN2CCC1CC2)c1ccccc1 (configuration not stated),inactive: 8.29%
